Measurements: patent US20250019427A1

How the values were obtained:
[1] = biological target: T1, Human GDF15 Fc (human) (UniProt Q99988); test: Octet BLI, Fab monovalent
T1 sequence (chain, biotinylated (EZ-Link Sulfo-NHS-Biotinylation Kit) where printed as biotinylated): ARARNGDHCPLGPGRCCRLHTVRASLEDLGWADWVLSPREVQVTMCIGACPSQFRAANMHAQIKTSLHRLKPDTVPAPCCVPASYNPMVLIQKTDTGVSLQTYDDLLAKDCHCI

[2] = biological target: T1, Human GDF15 Fc (human); test: SPR Biacore, Fab monovalent

B1: Clone H Fab (Fab, V domains shown)
VH: QVQLVQSGAEVKKPGSSVKVSCKASGGTFSSYYISWVRQAPGQGLEWMGGIAPISGTASYAQKFQGRVTITADESTSTAYMELSSLRSEDTAVYYCARGLAYDGYFDLWGRGTLVTVSS
VL: DIVMTQSPLSLPVTPGEPASISCRSSQSLLYSNGYNYLDWYLQKPGQSPQLLIYLGSNRASGVPDRFSGSGSGTDFTLKISRVEAEDVGVYYCMQAIGVPLTFGGGTKVEIK
Kd [1]: 1.24 nM | Kd [2]: 0.117 nM | koff [2]: 0.000735 s⁻¹ | kon [2]: 6.29e+06 M⁻¹ s⁻¹
